# Results from patent US20260027108A1, “PHARMACEUTICAL COMPOSITION OF HETEROARYL DERIVATIVE AND MEDICAL USE THEREOF” (Haisco Pharmaceutical Group Co., Ltd., priority 2022, published 2026).
# pIC50: −log10 of the molar value.
# System: MDA-MB-436 cells
# Experiment: MDA-MB-436 cell activity test (CellTiter-Glo, 7 days)
# Settings: read-out: MDA-MB-436 cell inhibitory activity IC50; 7 days incubation
compound,measurement,value
"CCc1cc2ncc(CN3CCN(c4ccc(NC(=O)C5CC5(F)F)nc4)CC3)cc2[nH]c1=O (single isomer, unassigned) [Compound 50]",pIC50,8.52
